Test results from patent publication US20110160249A1, “5-LIPOXYGENASE-ACTIVATING PROTEIN INHIBITOR” (priority 2008, published 2011).

Assay: Solubility Profile in Common Organic Solvents
Format: physicochemical

- solubility in words (acetonitrile and isopropanol): sparingly soluble
- solubility in words (methanol and ethanol): very soluble
Structure (SMILES): CCOc1ccc(-c2ccc(Cn3c(CC(C)(C)C(=O)[O-])c(SC(C)(C)C)c4cc(OCc5ccc(C)cn5)ccc43)cc2)cn1.[Na+] [Compound 2, sodium 3-[3-(tert-butylsulfanyl)-1-[4-(6-ethoxy-pyridin-3-yl)benzyl]-5-(5-methyl-pyridin-2-yl-methoxy)-1H-indol-2-yl]-2,2-dimethylpropionate]
